The results in this text go back to patent publication US11547681B2, “N-acylethanolamide derivatives and uses thereof” (ELIEM THERAPEUTICS, INC., priority 2016, dated 2023).

Data set [1] can be described thus: Liver S9 stability, mouse. The conditions noted are these: Mouse liver S9, control compound.
For data set [2] the following is noted: male, Beagle, dog, s9.
A further data set in a line: Liver S9 stability, rat. The conditions noted are these: control compound.
Data set [3] can be described thus: Intestinal S9 fraction stability, human.

Molecules are shown by their SMILES. Like-named read-outs stand apart in the source and are kept apart here.

Regarding `C[C@]12CC[C@H]3[C@@H](CCC4=CC(=O)CC[C@@]43C)[C@@H]1CC[C@@H]2O` [Testosterone, testosterone], the CLint in data set [1] is 0.0976 ml/min/mg protein. The Half-life in data set [2], in data set [3] and in data set [3] (Control Compound) was 14 min throughout. For the same compound, the “Half-life (min)” value in data set [2] is reported as 14 min. The “CLint (ml/min/mg protein)” value in “Liver S9 stability, rat” is given as 0.148 ml/min/mg protein.
